Laboratory results taken from patent publication US20250161419A1, “SERPIN PEPTIDES AND METHODS OF USING THE SAME” (SERPIN PHARMA, LLC, priority 2022, published 2025).

Key:
phospho-STAT6 = assay: IL-13 stimulated STAT6 phosphorylation in esophageal EPC2 cells (western blot); type: cell-based, human
Method: Esophageal EPC2 cells were treated with vehicle (ddw), A1AT or SP163M. Cells were collected at time-points indicated and western blot analysis of phospho-specific STAT6 was analyzed. […] Using CRISPER/CAS9 technology, an LRP1 knockout esophageal EPC2 cell line was created.

[1] = tested on: formalin (2.5%) induced paw licking in C57BL6 mice; assay: Intraplantar formalin test; type: in vivo, mouse; details: for licking time, early phase (0-10 min): vehicle over 100 s
Method: Intraplantar formalin and capsaicin models: Male mice (n=33) were acclimated to the behavior testing facility for at least 60 min. Mice were randomized into four groups SP163M (0.02, 0.2, and 2 μg/g) or vehicle were administered subcutaneously. After 1 h, 20 μl of 2.5% formalin was injected subcutaneously into the plantar area of left hind paw. Immediately after formalin injection, mice were placed in a Plexiglas box (22×22×14 cm). Two observers, blinded to treatments, recorded the total amount of time mice spent on licking and flinching the left hind paw every 5 min over a one-hour period. To quantify the formalin response, activity during early phase (0-10 min) and later phase (15-50 min) were examined separately.

[2] = tested on: capsaicin induced acute pain-related behavior in mice; assay: Intraplantar capsaicin model of acute nociception; type: in vivo, mouse; details: male mice; SP163M 2 μg/g s.c. or EI-tPA 2 μg/g i.v. 1 h before capsaicin
Method: For the capsaicin studies, male (n=41) and female (n=37) mice were acclimated to the behavior testing facility for at least 1 h. Capsaicin was dissolved in 20% (2-hydroxypropyl)-β-cyclodextrin (Sigma-Aldrich, St. Louis, MO, USA) solution. […] Subsequently, 10 μl of 2 μg/μl capsaicin solution was injected into the plantar area of left hind paw. Immediately after capsaicin injection, mice were placed in a plexiglass box. Two observers, blinded to treatments, recorded the time spent licking and flinching the left hind paw over 10 min.

CD11b = assay: Immunohistochemistry of L4 DRGs two days after PNL, CD11b; type: in vivo, mouse; details: L4 DRG two days after PNL, vs vehicle
Method: Neuropathic pain model: Mice (n=30) were randomly assigned to two different groups: SP163M (2 μg/g; s.c. 100 μl) and vehicle (H20 s.c. 100 μl). Mice were treated 1 h prior to partial nerve ligation (PNL) and then daily at least 1 h prior to behavior testing for 2 weeks. PNL studies were performed as previously disclosed^59 and adapted for mice.^57 Male mice were anesthetized with 3% isoflurane (Vetone, USA) in 1.5 L/min oxygen (Praxair, USA) and maintained with 2.5% isoflurane. An incision was made along the long axis of the femur. […] Filaments were presented in a consecutive fashion either ascending or descending using the up-down method as previously disclosed^60 and modified for mice.^57,61 The filament that caused paw withdrawal 50% of the time (the 50% PWT) was determined. […]
Immunoblots of sciatic nerve: Sciatic nerves were harvested 2 days after PNL to identify early molecular and cellular changes. […] Nerves were lysed in RIPA buffer and equal amounts of protein (20 μg) from nerves lysates, as determined by BCA Protein Assay (Bio-Rad, Hercules, CA, USA), were subjected to 10% SDS-PAGE and electro-transferred to nitrocellulose membranes. […] Primary antibodies were detected with HRP-conjugated species-specific secondary antibodies (Cell Signaling Technology, Danvers, MA, USA; cat #7076S or 4S; 1:5000). […]

SMILES: CCCC[C@H](NC(=O)[C@H](CC(C)C)NC(=O)[C@H](Cc1ccccc1)NC(=O)[C@@H](NC(=O)[C@H](Cc1ccccc1)NC(=O)[C@@H]1CCCN1C(=O)[C@H](CCCCN)NC(=O)[C@H](CC(N)=O)NC(=O)[C@H](Cc1ccccc1)NC(=O)[C@H](CCCCN)NC(=O)[C@@H](NC(C)=O)C(C)C)C(C)C)C(=O)N[C@H](C(=O)N[C@@H](CCC(=O)O)C(=O)N[C@@H](CCC(N)=O)C(=O)N[C@@H](CC(N)=O)C(=O)N[C@H](C(=O)N[C@@H](CCCCN)C(N)=O)[C@@H](C)O)[C@@H](C)CC [SP163M, Ac-VKFNKPFVFLNIeIEQNTK-NH2]
- phosphorylated STAT6 in LRP1 knockout cell line (phospho-STAT6; CRISPER/CAS9 LRP1 knockout EPC2 cells): not capable of reducing phosphorylated STAT6
- persistence of the reduction in STAT6 phosphorylation (phospho-STAT6; EPC2 cells, IL-13): persisted for several hours post-treatment
- phospho-STAT6 expression in control cells (with LRP1) (phospho-STAT6; EPC2 control cells): capable of reducing phospho-STAT6 expression
- licking time, early phase (0-10 min) ([1]; 0.02 μg/g s.c. 1 h before formalin): 80 s
- AUC of licking time, late phase (15-50 min) ([1]; 0.02 μg/g s.c., vs vehicle, Tukey's post hoc test): p=ns
- licking time, early phase (0-10 min) ([1]; 2 μg/g s.c. 1 h before formalin): 60 s
- peak late phase start time ([1]; 2 μg/g s.c., vehicle peak after 25 min): 30 min
- AUC of licking time, late phase (15-50 min) ([1]; 0.2 and 2 μg/g s.c., vs vehicle): reduced licking time in the late phase compared to vehicle controls
- area under the curve (AUC) of licking, early phase ([1]; low 0.02 and high 2 μg/g s.c., vs vehicle): both the low and high SP163M treatment groups reached statistical significance
- capsaicin induced acute pain-related behavior (time spent licking over 10 min) [2]: blocked the capsaicin induced acute pain-related behavior
- CD11b levels in DRGs (quantification of immunohistochemistry) (CD11b): approximately five-fold less CD11 b levels than vehicle-treated DRGs
